The text below walks through data of patent publication US20250345387A1, “CORONAVIRUS THERAPEUTICS AND TREATMENT METHODS” (priority 2020, published 2025).

Amino acid sequences for entries named in this document (tags omitted). Residues count along the entry.
UniProt Q02763, 23-1124: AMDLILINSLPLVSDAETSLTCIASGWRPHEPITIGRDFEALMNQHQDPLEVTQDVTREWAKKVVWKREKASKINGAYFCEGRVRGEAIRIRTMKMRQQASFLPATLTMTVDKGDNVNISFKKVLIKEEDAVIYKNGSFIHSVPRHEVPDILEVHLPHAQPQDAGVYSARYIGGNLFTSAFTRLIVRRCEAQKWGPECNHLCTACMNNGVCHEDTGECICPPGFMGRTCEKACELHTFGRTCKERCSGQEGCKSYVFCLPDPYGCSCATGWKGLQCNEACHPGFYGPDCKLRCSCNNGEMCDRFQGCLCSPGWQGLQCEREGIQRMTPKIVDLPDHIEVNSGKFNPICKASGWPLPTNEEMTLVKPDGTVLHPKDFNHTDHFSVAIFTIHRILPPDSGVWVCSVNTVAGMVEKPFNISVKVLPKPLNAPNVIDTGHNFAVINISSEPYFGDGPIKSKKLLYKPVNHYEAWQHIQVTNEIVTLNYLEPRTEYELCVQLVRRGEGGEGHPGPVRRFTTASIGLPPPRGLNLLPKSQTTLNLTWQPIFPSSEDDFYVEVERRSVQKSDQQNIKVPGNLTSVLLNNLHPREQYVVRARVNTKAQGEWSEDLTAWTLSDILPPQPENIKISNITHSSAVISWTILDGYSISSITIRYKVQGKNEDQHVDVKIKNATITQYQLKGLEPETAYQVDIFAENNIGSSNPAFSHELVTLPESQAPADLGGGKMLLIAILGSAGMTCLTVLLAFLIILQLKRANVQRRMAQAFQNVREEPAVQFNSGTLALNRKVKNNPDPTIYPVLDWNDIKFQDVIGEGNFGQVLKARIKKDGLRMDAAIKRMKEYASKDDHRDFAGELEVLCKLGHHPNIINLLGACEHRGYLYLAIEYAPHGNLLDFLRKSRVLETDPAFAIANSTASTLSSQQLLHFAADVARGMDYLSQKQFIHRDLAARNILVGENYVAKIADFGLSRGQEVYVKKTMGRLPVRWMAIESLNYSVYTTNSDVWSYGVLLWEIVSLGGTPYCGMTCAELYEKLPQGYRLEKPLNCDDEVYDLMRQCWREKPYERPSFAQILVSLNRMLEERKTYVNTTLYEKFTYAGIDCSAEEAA

The target in assay [1] is T1, Tie2 receptor (Homo sapiens, UniProt Q02763).
T1 construct: endogenous in cells; host or cells: HUVEC; HMVEC-tert (human dermal microvascular endothelial cells immortalized with telomerase)
Put plainly: Tie2 phosphorylation ELISA in HMVEC^tert. The assay is classed as cell-based. As for the experimental part: Human microvascular endothelial cells (dermal origin) immortalized with human telomerase reverse transcriptase/catalytic subunit (tert), Shao and Guo (2004) were seeded on 100 mm tissue culture plates in complete endothelial basal media-2 (EBM-2)(Lonza) and were cultured in 20% O2, 5% CO2 and 37° C. humidified chamber. Growth media consisted of EBM-2, supplemented with 10% fetal bovine serum, 1× pen/strep, 1 ug/ml hydrocortisone and 100 ng/ml EGF. Cells that had reached 90% confluence were simulated for 15 minutes with the specified concentrations of parental Vasculotide, MPA-Br or Angiopoietin-1 in complete EBM-2 media. Following the 15 minute stimulation, cells were placed on ice and washed twice in ice cold PBS. Cell lysates were prepared for use in IC12 lysis buffer (1% NP-40, 20 mM Tris (pH 8.0), 137 mM NaCl, 10% Glycerol, 2 mM EDTA, 1 mM activated sodium orthovanadate). BCA protein concentration kit was used to measure protein concentration of each lysate. Samples were subject to ELISA measuring pYTie2 and total Tie2 concentration. 20 μg of protein from each sample were loaded to each well, each sample was run in duplicate. Relative pTie2 to total Tie2 ratios were determined for each sample. The level of Tie-2 phosphorylation in each treatment group was normalized to that of EBM-treated group in each experiment.
On the technique in general: An ELISA detects its analyte on a solid surface through an enzyme-linked reagent.

For assay [2], the target named is T1, Tie2 receptor. Put plainly: Tie2 phosphorylation ELISA in HUVEC. Particulars: 15 minute stimulation, only a single significant response. The assay is classed as cell-based. As for the experimental part:
Human umbilical vein endothelial cells (HUVECs) were seeded on 100 mm tissue culture plates in complete endothelial basal media (EBM)(Lonza) supplemented with ‘EGM single quots’ (Lonza) in 20% O2, 5% CO2 and 37° C. humidified chamber according to manufacturer's recommendations. Cells that had reached 90% confluence were simulated for 15 minutes with the specified concentrations of parental Vasculotide, MPA-Br or Angiopoietin-1 (R&D Systems) in complete EBM media. Following the 15 minute stimulation, cells were placed on ice and washed twice in ice cold PBS. Cell lysates were prepared for use in 1C12 lysis buffer (1% NP-40, 20 mM Tris (pH 8.0), 137 mM NaCl, 10% Glycerol, 2 mM EDTA, 1 mM activated sodium orthovanadate). BCA protein concentration kit was used to measure protein concentration of each lysate as per manufacturer's instructions (Thermo Scientific). Samples were subjected to ELISAs that measured phosphorylated Tie2 and total Tie2 levels according to the manufacturers protocol. 20 μg or 5 μg of protein from each sample was loaded in duplicate for phosphorylated Tie2 and total Tie2 readings respectively. Phosphorylated Tie2:total Tie2 ratios were determined for each sample. The level of Tie2 phosphorylation for all treatment groups were then normalized to that of the no treatment group (NT, complete EBM only) in each experiment.

Assay [3] concerns the target human Tie2 receptor on human endothelial cells (HUVEC, HMVECtert) (human, UniProt Q02763 23-1124). Put plainly: cell-based or functional assay.

For “parental Vasculotide: 10 kDa 4-armed polyethylene glycol with Tie2 binding peptides (CHHHRHSF) attached via maleimide; mimics Ang1 [reference compound]”, the “concentration at which activation became apparent, relative to MPA-Br” value in the assay with Tie2 receptor [1] is recorded as “five times higher concentration”. In addition, the “dose with significant Tie2 activation (pTie2/total Tie2 vs no treatment)” value in the assay with Tie2 receptor [2] was 1000 ng/ml.

B1: parental Vasculotide (peptide)
peptide: CHHHRHSF
modifications: thiol of the amino terminal cysteine joined to a maleimide arm of a 10 kDa 4-armed polyethylene glycol; mixture of 5-membered succinimide and 6-membered thiazin ring products
notes: Manufactured by Bachem; also called VT; parental VT
Regarding B1, in assay [3], the “relative magnitude of Tie2 activation in HMVECtert” value is about 2.6 fold.
